Biological target: T1, 3-hydroxy-3-methylglutaryl-coenzyme A reductase (Rattus norvegicus, UniProt P51639)
T1 sequence (P51639 whole entry): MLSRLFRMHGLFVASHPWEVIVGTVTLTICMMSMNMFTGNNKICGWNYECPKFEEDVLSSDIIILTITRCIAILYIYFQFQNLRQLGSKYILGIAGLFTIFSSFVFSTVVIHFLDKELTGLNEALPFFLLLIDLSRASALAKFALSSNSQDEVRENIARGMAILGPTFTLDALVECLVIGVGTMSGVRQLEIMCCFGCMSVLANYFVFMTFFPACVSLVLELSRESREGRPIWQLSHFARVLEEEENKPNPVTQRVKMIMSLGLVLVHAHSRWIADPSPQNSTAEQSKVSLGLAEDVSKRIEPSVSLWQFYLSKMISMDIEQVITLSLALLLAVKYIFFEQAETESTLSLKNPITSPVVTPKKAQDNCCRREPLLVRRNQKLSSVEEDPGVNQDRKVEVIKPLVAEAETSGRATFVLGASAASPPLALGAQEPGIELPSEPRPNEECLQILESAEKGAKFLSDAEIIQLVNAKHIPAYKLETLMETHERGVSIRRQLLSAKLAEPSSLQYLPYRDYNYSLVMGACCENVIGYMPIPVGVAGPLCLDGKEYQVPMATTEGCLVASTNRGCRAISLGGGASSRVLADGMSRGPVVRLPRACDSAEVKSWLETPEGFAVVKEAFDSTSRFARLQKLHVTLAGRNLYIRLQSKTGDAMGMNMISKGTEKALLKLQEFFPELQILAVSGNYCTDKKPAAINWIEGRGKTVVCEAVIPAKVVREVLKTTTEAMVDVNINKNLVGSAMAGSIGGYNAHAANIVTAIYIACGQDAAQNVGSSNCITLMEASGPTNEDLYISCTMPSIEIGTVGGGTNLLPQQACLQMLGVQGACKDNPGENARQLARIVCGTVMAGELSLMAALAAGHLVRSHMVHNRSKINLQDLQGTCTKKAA
Experiment: Ability to inhibit microsomal preparation of HMG-CoA reductase in rat liver.

`CC(C)c1c(C(=O)Nc2ccccc2)c(-c2ccccc2)c(-c2ccc(F)cc2)n1CC[C@@H](O)C[C@@H](O)CC(=O)O` showed an IC50 of 7.5 nM.
